OPERA 2.9 data: intrinsic clearance values

Source: data files of OPERA 2.9 (Mansouri et al.), github.com/kmansouri/OPERA.

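The OPERA project collected these measurements from public sources as training and test data for property models. A listed value is a point estimate from one report or more. Method and conditions are not stated for these values. Where a salt, mixture or single isomer is drawn, the source does not say that exactly this form was tested. Some entries may be limits or estimates that an upstream database listed as plain numbers.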

Clint is human hepatic intrinsic clearance in µL/min per million cells; 0 means that no clearance was seen.

SMILES	intrinsic clearance (µL/min/10^6 cells)
Brc1ccc(Oc2ccc(Br)cc2)cc1	12.4
Clc1ccc(C(c2ccc(Cl)cc2)C(Cl)Cl)cc1	0
Nc1ccc([N+](=O)[O-])cc1	23.6
CCCCCCCCCC[N+](C)(C)CCCCCCCCCC.[Cl-]	18.65
CCCCN(CC)c1c([N+](=O)[O-])cc(C(F)(F)F)cc1[N+](=O)[O-]	17.34
CCCCC(CC)COC(=O)CCCCC(=O)OCC(CC)CCCC (configuration not stated)	13.56
CCN(CC)C(=O)C(C)Oc1cccc2ccccc12 (configuration not stated)	15.15
CCCCOCN(C(=O)CCl)c1c(CC)cccc1CC	100.8
O=S(=O)([O-])C(F)(F)C(F)(F)C(F)(F)C(F)(F)C(F)(F)C(F)(F)C(F)(F)C(F)(F)F.[K+]	0
COc1ccc(C(c2ccc(OC)cc2)C(Cl)(Cl)Cl)cc1	12.5
CCCOC(=O)c1ccccc1C(=O)OCCC	858
COP(=S)(OC)Oc1nc(Cl)c(Cl)cc1Cl	24.1
O=Nc1ccc(Nc2ccccc2)cc1	839
Nc1ccc(/N=N/c2ccccc2)cc1	15.7
CC(C)NC(=O)N1CC(=O)N(c2cc(Cl)cc(Cl)c2)C1=O	11.7
C1=CCCC=CCCC=CCC1	17.28
OCCOc1ccccc1	17.89
Cc1cc(Cl)ccc1N	8.06
Clc1ccc(C(c2ccc(Cl)cc2)C(Cl)(Cl)Cl)cc1	12.5
CC(C)(C)CC(C)(C)c1ccc(O)cc1	26.98
CCCCNC(=O)n1c(NC(=O)OC)nc2ccccc21	26
CCN(CC)c1nc(C)cc(OP(=S)(OC)OC)n1	49.7
CCCCOC(=O)c1ccccc1C(=O)O	0.74
CC1(C)CNC(=NN=C(/C=C/c2ccc(C(F)(F)F)cc2)/C=C/c2ccc(C(F)(F)F)cc2)NC1	4.38
c1cc2c3c(cccc3c1)CC2	4.846
CCCCCCCCCCCCN(C)C	34.2
c1ccc2c(c1)oc1ccccc12	8.3
CCCCCCCCc1ccc(O)cc1	15.65
COP(=S)(OC)Oc1ccc([N+](=O)[O-])c(C)c1	10.02
Brc1cc(Br)cc(Br)c1	0
CCNS(=O)(=O)C(F)(F)C(F)(F)C(F)(F)C(F)(F)C(F)(F)C(F)(F)C(F)(F)C(F)(F)F	3.48
Cc1ccc(-c2nc3ccc(C)cn3c2CC(=O)N(C)C)cc1	3.271
COP(=S)(OC)SCN1C(=O)c2ccccc2C1=O	23.82
CC(c1ccc(O)cc1)(c1ccc(O)cc1)c1ccc(O)cc1	30.8
CCCCN(CC)C(=O)SCCC	159
O=[N+]([O-])c1ccc(Cl)cc1	400
CC(C)COC(=O)c1ccccc1C(=O)OCC(C)C	345
CCCCOC(=O)c1ccccc1C(=O)OCCCC	42.5
CCN(CC)CCN1C(=O)[C@@](O)(c2ccccc2Cl)c2c1cc(C(N)=O)cc2C(F)(F)F	13.18
CC(=O)C[C@@H](c1ccccc1)C1C(=O)Oc2ccccc2C1O (stereo not given in full)	0
CCOC(=O)CC(SP(=S)(OC)OC)C(=O)OCC (configuration not stated)	368
COc1ccc(C)cc1N	19.53
CCOP(=O)(OCC)Oc1cc(C)nc(C(C)C)n1	34.62
CC(C)(C)c1ccc(CSc2cnn(C(C)(C)C)c(=O)c2Cl)cc1	63.93
CCc1cccc(C)c1N(C(=O)CCl)C(C)COC (configuration not stated)	35.37
N#Cc1cccnc1	0
Cl.Nc1ccccc1	4.41
CCOC(=O)C(O)(c1ccc(Cl)cc1)c1ccc(Cl)cc1	477
Clc1ccc(Cl)c(-c2c(Cl)ccc(Cl)c2Cl)c1Cl	0
Clc1cc(Cl)c(-c2c(Cl)cc(Cl)cc2Cl)c(Cl)c1	0
CCCCC(CC)COC(=O)c1ccccc1C(=O)O (configuration not stated)	0
C=CC=C	4.733

Excerpt, the opening 7 entries:

SMILES	intrinsic clearance (µL/min/10^6 cells)
Brc1ccc(Oc2ccc(Br)cc2)cc1	12.4
Clc1ccc(C(c2ccc(Cl)cc2)C(Cl)Cl)cc1	0
Nc1ccc([N+](=O)[O-])cc1	23.6
CCCCCCCCCC[N+](C)(C)CCCCCCCCCC.[Cl-]	18.65
CCCCN(CC)c1c([N+](=O)[O-])cc(C(F)(F)F)cc1[N+](=O)[O-]	17.34
CCCCC(CC)COC(=O)CCCCC(=O)OCC(CC)CCCC (configuration not stated)	13.56
CCN(CC)C(=O)C(C)Oc1cccc2ccccc12 (configuration not stated)	15.15